The assay addresses T1, SnvAT (Strychnos nux-vomica, UniProt P0DO84).
T1 construct: gene AT
Particulars: acyl donor, endogenous or from AAE13 plus malonate; with Wieland-Gumlich aldehyde.

By UniProt entry, the sequences of proteins in these tests, tags left out. Where a name states a change or a piece, a line headed by the entry shows the natural chain unless it says otherwise.
UniProt P0DO84: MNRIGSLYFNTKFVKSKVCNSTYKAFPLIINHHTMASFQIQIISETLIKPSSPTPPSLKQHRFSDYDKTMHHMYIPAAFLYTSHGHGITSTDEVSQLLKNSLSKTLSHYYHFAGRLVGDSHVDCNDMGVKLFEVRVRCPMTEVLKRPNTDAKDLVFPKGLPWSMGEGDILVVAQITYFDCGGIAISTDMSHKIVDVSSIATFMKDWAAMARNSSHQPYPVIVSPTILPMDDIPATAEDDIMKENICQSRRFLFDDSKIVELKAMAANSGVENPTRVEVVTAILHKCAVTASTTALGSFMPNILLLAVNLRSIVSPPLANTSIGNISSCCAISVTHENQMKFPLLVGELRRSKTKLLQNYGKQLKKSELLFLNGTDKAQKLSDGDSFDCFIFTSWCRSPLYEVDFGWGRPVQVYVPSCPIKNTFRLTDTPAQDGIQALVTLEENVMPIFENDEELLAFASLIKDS

For `CC(C)(COP(=O)(O)OP(=O)(O)OC[C@H]1O[C@@H](n2cnc3c(N)ncnc32)[C@H](O)[C@@H]1OP(=O)(O)O)[C@@H](O)C(=O)NCCC(=O)NCCSC(=O)CC(=O)O` [malonyl-CoA], the “transient expression in N. benthamiana, LC-MS” value was “SnvAT is a BAHD acyltransferase with predominantly malonyltransferase activity”.

The values above are taken from publication PMC9300463 (Nature, 2022).
